# Laboratory results published in PubChem BioAssay (NCI).
# Only a part is listed here, and it is no random draw. Some structures show a salt or complex split into parts, the way the source records it. Some compounds were tested as several samples or in several runs, with calls that do not always agree. Calls of active or inactive are those of the source. No stated cut-off is given here; in the data, active means growth inhibition above about 70%; inactive means the rest.
# Test: NCI Yeast Anticancer Drug Screen. Data for the rad52 strain (AID 147);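 further: 0% = growth of vehicle-treated control cultures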
# Conditions: S. cerevisiae rad52 mutant growth inhibition, hits give high values
# Experimental: Growth inhibition of yeast strains with defined genetic alterations is measured as a screen for potential anti-cancer activity. Selected strains with alterations in DNA damage repair or cell cycle control were exposed to compounds and growth inhibition was measured relative to vehicle treated controls. The strain used in this assay is rad52
Structure (SMILES),growth inhibition (at 1.2 µM),growth inhibition (at 3.7 µM),growth inhibition (at 11.0 µM),growth inhibition (at 33.0 µM),growth inhibition (at 100.0 µM)
Nc1ccccc1.O=[N+]([O-])c1cc([N+](=O)[O-])cc([N+](=O)[O-])c1,inactive: 0%,inactive: 3%,inactive: 31%,active: 98%,active: 99%
O=[N+]([O-])C(F)(COCC(O)CO)[N+](=O)[O-] (stereo not given),inactive: -13%,inactive: 22%,inactive: 7%,inactive: 63%,active: 88%
COc1ccccc1N.O=[N+]([O-])c1cc([N+](=O)[O-])cc([N+](=O)[O-])c1,inactive: -3%,inactive: 5%,inactive: 41%,active: 98%,active: 99%
Cc1cc2ccccc2cc1C.O=[N+]([O-])c1cc([N+](=O)[O-])cc([N+](=O)[O-])c1,inactive: -1%,inactive: -1%,inactive: 2%,inactive: 11%,active: 91%
[Au].[C-]#N.[C-]#N,inactive: 6%,inactive: 44%,inactive: 36%,inactive: 40%,inactive: 34%
Cc1ccc2ccc3ccc4ccccc4c3c2c1.O=C1c2cc([N+](=O)[O-])ccc2-c2c1cc([N+](=O)[O-])cc2[N+](=O)[O-],inactive: 2%,inactive: 4%,inactive: 10%,inactive: 16%,inactive: 22%
